Data reported in patent publication US20120108557A1, “FLUOROQUINOLONE DERIVATIVES FOR OPHTHALMIC APPLICATIONS” (ALCON RESEARCH, LTD., priority 2008, published 2012).

Experimental: The procedure used is summarized below.
Female New Zealand Albino rabbits were sacrificed by first anaesthetizing with ketamine (30 mg/Kg) and xylazine (6 mg/Kg) followed by an injection of an overdose of […]* (sodium pentobarbital, 1 ml of a 26% solution) into the marginal ear vein. The intact eyes, along with the lids and conjunctival sacs were then enucleated and immediately stored in about 70 ml of fresh BSS PLUS® irrigation solution saturated with O2/CO2 (95:5).
To accomplish this, the exposed cornea of the enucleated eye was carefully placed on a corneal holder, which maintained the cornea curvature and held the eye in place. Various tissues of the eye were dissected leaving the cornea, a small ring of scleral tissue, and the palpebral conjunctiva. […]
Samples (150 μL) were withdrawn from the receiving chamber every 30 minutes over a five hour period, and an equal volume of irrigating solution was immediately added to the receiving chamber to maintain a constant volume. The concentration of fluoroquinolones in the samples was determined using reverse-phase HPLC. […] The mobile phase (acetonitrile:phosphate buffer v/v) and UV detection wavelengths for each of the fluoroquinolones was determined beforehand. […]
The rate of drug accumulation in the receiving (endothelial) chamber, and the apparent Permeability Coefficients (Papp) of the fluoroquinolones were then calculated as follows: […]

MEAN PERMEABILITY COEFFICIENT: 11.7 ×10⁻⁶ cm/s
Substance: moxifloxacin [reference compound]
